Experimental data from ChEMBL document CHEMBL1132816, “Arylacetamides as peripherally restricted kappa opioid receptor agonists” (Bioorg Med Chem Lett, 2000).

Amino acid sequences for entries named in this document (tags omitted). A change or cut given only in a name is not applied to a line headed by its entry.
UniProt P41145: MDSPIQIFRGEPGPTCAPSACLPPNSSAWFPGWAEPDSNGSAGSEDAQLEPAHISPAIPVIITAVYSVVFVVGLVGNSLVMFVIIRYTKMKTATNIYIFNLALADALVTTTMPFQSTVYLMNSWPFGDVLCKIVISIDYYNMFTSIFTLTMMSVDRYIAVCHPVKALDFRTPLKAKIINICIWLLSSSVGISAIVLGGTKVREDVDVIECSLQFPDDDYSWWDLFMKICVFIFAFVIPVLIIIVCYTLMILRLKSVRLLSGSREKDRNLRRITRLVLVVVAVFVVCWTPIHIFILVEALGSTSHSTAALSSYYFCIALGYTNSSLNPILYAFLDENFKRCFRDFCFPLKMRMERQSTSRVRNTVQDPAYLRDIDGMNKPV
UniProt P35372, whole entry, looked up: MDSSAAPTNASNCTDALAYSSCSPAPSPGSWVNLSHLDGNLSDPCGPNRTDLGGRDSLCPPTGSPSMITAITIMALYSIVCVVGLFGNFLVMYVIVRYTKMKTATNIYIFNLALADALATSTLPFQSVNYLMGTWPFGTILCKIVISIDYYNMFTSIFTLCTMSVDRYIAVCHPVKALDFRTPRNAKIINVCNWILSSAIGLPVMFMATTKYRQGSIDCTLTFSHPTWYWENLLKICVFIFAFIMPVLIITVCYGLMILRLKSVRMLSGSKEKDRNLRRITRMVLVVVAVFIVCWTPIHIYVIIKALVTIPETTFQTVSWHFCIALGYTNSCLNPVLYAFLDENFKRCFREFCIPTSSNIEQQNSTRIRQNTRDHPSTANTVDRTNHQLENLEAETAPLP
UniProt P41143, whole entry, looked up: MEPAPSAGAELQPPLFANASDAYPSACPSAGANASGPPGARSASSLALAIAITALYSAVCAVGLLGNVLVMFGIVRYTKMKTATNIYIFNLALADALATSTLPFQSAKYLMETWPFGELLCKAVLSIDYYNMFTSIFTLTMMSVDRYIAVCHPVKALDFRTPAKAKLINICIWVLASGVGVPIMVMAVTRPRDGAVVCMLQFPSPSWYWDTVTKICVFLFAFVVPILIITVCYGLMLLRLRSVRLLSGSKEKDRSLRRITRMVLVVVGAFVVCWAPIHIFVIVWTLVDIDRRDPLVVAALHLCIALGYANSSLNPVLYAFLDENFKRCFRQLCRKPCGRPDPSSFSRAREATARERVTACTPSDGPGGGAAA

What was measured:
[1] = Peripheral restriction index was determined
[2] = molecular target: Opioid receptors; mu & kappa (Homo sapiens) (UniProt P41145+P35372); assay: Selectivity was evaluated as ratio of Ki of mu receptor by displacement of [3H]diprenorphine to that of kappa receptor
[3] = molecular target: Opioid receptors; delta & kappa (Homo sapiens) (UniProt P41145+P41143); assay: Selectivity was evaluated as ratio of Ki of delta receptor by displacement of [3H]diprenorphine to that of kappa receptor

Question: With CN(C(=O)Cc1ccc(Cl)c(Cl)c1)[C@H](CN1CCCC1)c1ccccc1 [ICI-199,441] as the compound, how does the Peripheral restriction index [1] read?
Answer: 3

Question: With CN(C(=O)Cc1cccc(C(F)(F)F)c1)[C@H](CN1CCCC1)c1ccccc1 as the compound, how does the Peripheral restriction index [1] read?
Answer: 9

Question: Which results are given for CN(C(=O)Cc1ccc(C(F)(F)F)cc1)[C@H](CN1CCCC1)c1ccccc1?
Answer: Peripheral restriction index [1]: 13; Selectivity [2]: > 800; Selectivity [3]: > 1000

Question: Which Peripheral restriction index [1] does the source give for CN(C(=O)Cc1ccc(Cl)c(Cl)c1[N+](=O)[O-])[C@H](CN1CCCC1)c1ccccc1 here?
Answer: 4

Question: For CN(C(=O)Cc1ccccc1[N+](=O)[O-])[C@H](CN1CCCC1)c1ccccc1, which Selectivity [2] is on record?
Answer: > 1000

Question: What about the Selectivity [3] of the same compound?
Answer: > 1000

Question: Which Selectivity [2] does the source give for CN(C(=O)Cc1ccc([N+](=O)[O-])cc1)[C@H](CN1CCCC1)c1ccccc1 here?
Answer: 52

Question: What about the Selectivity [3] of the same compound?
Answer: 410

Question: With CN(C(=O)Cc1cccc([N+](=O)[O-])c1)[C@H](CN1CCCC1)c1ccccc1 as the compound, how does the Selectivity [2] read?
Answer: > 1000

Question: What about the Selectivity [3] of the same compound?
Answer: > 1000

Question: Which Peripheral restriction index [1] does the source give for CN(C(=O)Cc1ccccc1N)[C@H](CN1CCCC1)c1ccccc1 here?
Answer: 6
